According to patent publication US20130123460A1, “PEPTIDE FOR IMPROVING BIOSTABILITY OF BIOACTIVE SUBSTANCE, AND BIOACTIVE SUBSTANCE HAVING IMPROVED BIOSTABILITY” (priority 2010, published 2013):

Assays:
[1] = Plasma stability of GLP-1 peptide complex (remaining rate in rat plasma, HPLC/MS); type: in vitro ADME, SD rats; conditions: 0.5 μmol/L, 37° C., relative to 0 hour = 100%
[2] = molecular target: T1, endogenous GLP-1 receptor (Mus musculus, UniProt O35659); assay: Insulin secretion capacity of GLP-1 peptide complex in MIN 6 cells; type: cell-based; conditions: read-out: EC50 value (nM), insulin secretion capacity, 15 mM glucose, concentration for 50% of maximum activity of native GLP-1 at 1000 pM;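 note: insulin released into the supernatant of MIN 6 cultures quantified by ELISA, absorbance read at 450 nm with 620 nm reference after substrate addition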
T1 construct: expressing an endogenous GLP-1 receptor; endogenous in cells; host or cells: MIN 6 mouse insulinoma cells (obtained from a person)
T1 sequence (O35659 22-463): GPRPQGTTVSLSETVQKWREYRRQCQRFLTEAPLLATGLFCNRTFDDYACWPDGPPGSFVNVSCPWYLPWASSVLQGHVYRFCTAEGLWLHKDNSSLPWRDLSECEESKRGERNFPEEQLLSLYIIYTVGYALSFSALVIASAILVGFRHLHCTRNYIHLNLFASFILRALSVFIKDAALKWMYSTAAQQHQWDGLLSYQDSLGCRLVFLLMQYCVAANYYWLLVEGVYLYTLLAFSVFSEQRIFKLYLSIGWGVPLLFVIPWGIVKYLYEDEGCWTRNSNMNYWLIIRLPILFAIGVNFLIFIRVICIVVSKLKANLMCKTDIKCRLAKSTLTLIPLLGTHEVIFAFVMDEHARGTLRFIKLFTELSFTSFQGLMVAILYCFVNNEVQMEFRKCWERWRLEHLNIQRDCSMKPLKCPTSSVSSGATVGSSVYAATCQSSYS

| Substance | Remaining rate in plasma after 8 hours (%) [1] [%] | Remaining rate in plasma after 48 hours (%) [1] | Remaining rate in plasma after 48 hours (%) ([1]; 2880 min) | EC50 [2] [nM] |
| --- | --- | --- | --- | --- |
| GLP-1(7-36)-NH2 [Comparative Example 1, reference compound] | 0 | completely decomposed | 0 | – |
| [Ser8]-GLP-1(7-35)-GAm(28-44)-NH2 [Example 14] | 107 | 116% | – | – |
| [Ser8]-GLP-1(7-35)-GAm(32-44)-NH2 [Example 10] | 96 | 68% | – | – |
| [Ser8]-GLP-1(7-35)-GAm(38-42)-NH2 [Example 1] | 96 | 71% | – | 0.5 |
| [Ser8]-GLP-1(7-35)-GAm(38-44)-NH2 [Example 2] | 97 | 95% | – | – |
| [Ser8]-GLP-1(7-36)-NH2 [Comparative Example 2, reference compound] | 17 | completely decomposed | 0 | – |
